24 substances from patent publication US20210071139A1 can be followed below.

In the first experiment the target is TOX (UniProt Q66JW3). Kind of experiment: anti-TOX IP from EL4 nuclear extract, LC-MS/MS, MiST analysis.
Substance “Polb (from UniProt Q8K409 1-335) (enzyme)” returned an Abundance of 8.62e-05, a MiST Score of 0.776, a Reproducibility of 0.986 and a Specificity of 0.689.
In the same order, the values of Rpl32 (from UniProt P62911 1-135) are 0.00013, 0.783, 0.315 and 1.
In the same order, the values of Gtpbp4 (from UniProt Q99ME9 2-634) are 4.52e-05, 0.775, 0.968 and 0.695.
“Acaca (from UniProt Q5SWU9 1-2345) (enzyme)” returned an Abundance of 2.64e-07, a MiST Score of 0.775, a Reproducibility of 0.29 and a Specificity of 1.
In the same order, the values of “Rpl34; Gm2178 (from UniProt Q9D1R9 1-117)” are 0.00658, 0.768, 0.937 and 0.699.
In turn, Rpl26 (from UniProt P61255 1-145) returned an Abundance of 0.00499, a MiST Score of 0.783, a Reproducibility of 0.983 and a Specificity of 0.7.
For Rpl21 (from UniProt O09167 1-160), the Abundance was 0.00566, the MiST Score was determined as 0.778, the Reproducibility is 0.997 and the Specificity worked out at 0.687.
In the same order, the values of Rps24 (from UniProt P62849 1-133) are 0.00147, 0.767, 0.996 and 0.671.

A further experiment addresses TOX (UniProt Q66JW3). Kind of experiment: TOX co-IP from EL4 nuclear extract, LC-MS/MS, MiST.
In turn, Supt6h (from UniProt Q62383 2-1726) showed an Abundance of 2.72e-07, a MiST Score of 0.847, a Reproducibility of 0.524 and a Specificity of 1.
For the substance Tceb1 (from UniProt P83940 1-112), the Abundance turned out to be 0.00012, the MiST Score turned out to be 0.848, the Reproducibility was determined as 0.95 and the Specificity was 0.809.
In the same order, the values of Polr2b (from UniProt Q8CFI7 1-1174) are 7.04e-07, 0.835, 0.486 and 1.
In the same order, the values of Rpl28 (from UniProt P41105 2-137) are 0.0019, 0.835, 0.981 and 0.777.
Regarding Mrto4 (from UniProt Q9D0I8 1-239), the Abundance was 0.000166, the MiST Score came out at 0.849, the Reproducibility stood at 0.997 and the Specificity came to 0.79.

The target of another experiment is TOX (UniProt Q66JW3). Kind of experiment: anti-TOX IP from EL4 cells, mass spectrometry, MiST analysis.
As to Paf1 (from UniProt Q8K2T8 1-535), the Abundance came out at 9.64e-06, the MiST Score came to 0.798, the Reproducibility came out at 0.573 and the Specificity was determined as 0.907.
In turn, Rpl8 (from UniProt P62918 1-257) showed an Abundance of 0.00354, a MiST Score of 0.809, a Reproducibility of 0.995 and a Specificity of 0.733.
In the same order, the values of Rpl5 (from UniProt P47962 2-297) are 0.00103, 0.799, 0.984 and 0.723.
In the same order, the values of Rpl13 (from UniProt P47963 1-211) are 0.00376, 0.801, 0.953 and 0.739.
In the same order, the values of Rpl7a (from UniProt P12970 1-266) are 0.00461, 0.798, 0.888 and 0.764.
On to Rpl3 (from UniProt P27659 1-403), for which the Abundance turned out to be 0.000661, the MiST Score amounted to 0.815, the Reproducibility is 0.924 and the Specificity was determined as 0.773.

The target in another experiment is TOX (UniProt Q66JW3). Kind of experiment: anti-TOX IP from EL4 nuclear extract, LC-MS/MS, MiST vs IgG control.
Rpl23 (from UniProt P62830 1-140): the Abundance stood at 0.0029, the MiST Score was 0.756, the Reproducibility was 0.994 and the Specificity stood at 0.655.
In the same order, the values of “Hist1h3i; Hist1h3a; H3f3a (from UniProt P68433 2-136)” are 0.004, 0.752, 0.95 and 0.67.
In the same order, the values of Leo1 (from UniProt Q5XJE5 2-667) are 7.69e-06, 0.76, 0.974 and 0.671.
“Rpl10; Rpl10l (from UniProt Q6ZWV3 1-214)” came in with an Abundance of 0.00109, a MiST Score of 0.752, a Reproducibility of 0.944 and a Specificity of 0.673.
As for Rpl6 (from UniProt P47911 1-296), the Abundance was found to be 0.00317, the MiST Score was determined as 0.759, the Reproducibility worked out at 0.973 and the Specificity is 0.669.
